Assay [1] is described as follows: Selectivity index, ratio of IC50 for mouse 3T3 cells to IC50 for human OVCAR cells.
A short description of assay [2]: Selectivity index, ratio of IC50 for mouse 3T3 cells to IC50 for mouse J774.A1 cells.

Take `Cc1cc(=O)oc2cc(OCCn3cc(CCN4C(=O)c5ccccc5C4=O)nn3)ccc12`: the values for the Ratio IC50 in assay [1] and in assay [2] were 0.006 and 0.015, respectively.

The values are drawn from ChEMBL document CHEMBL5257152, “Antiproliferative activity and toxicity evaluation of 1,2,3-triazole and 4-methyl coumarin hybrids in the MCF7 breast cancer cell line” (RSC Med Chem, 2023).
